Measurements published in ChEMBL document CHEMBL3271947, “Improved delivery through biological membranes. 3. Delivery of N-methylpyridinium-2-carbaldoxime chloride through the blood-brain barrier in its dihydropyridine pro-drug form” (1976).

Assays:
Mus musculus [1] = experiment: Protection against phospholine iodide-induced toxicity in white mouse assessed as survival at 50 mg/kg administered 10 mins prior to phospholine iodide challenge
Mus musculus [2] = experiment: Reactivation of AChE in ICR mouse brain at 40 mg/kg, iv administered 2 hrs post DFP challenge measured after 30 to 120 mins relative to control

Compound	Activity (Mus musculus [1])	Activity (Mus musculus [2])
CN1CC=CC=C1/C=N/O	Active	Active
C[n+]1ccccc1C=NO	Active	

The source made the active and inactive calls. No cut-off for these calls is given here.
